RXFP1 antagonist: antagonists of human relaxin receptor RXFP1. HEK293-RXFP1, relaxin-stimulated cAMP HTRF, 30 min; hits give low values. activity change, negative = inhibition, % at 57.5 µM. 350,000 tested, 0.59% active;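 active = activity change of -60% or lower, but not beyond a set lower limit; inconclusive = change between -60% and -40%, or beyond the set limit; inactive = change above -40%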; note: % is set by controls: 0 for no effect and ±100 for the full control effect
IL2 activator: activators of IL-2. IL-2 activation reporter assay, cell-based qHTS; stimulated with anti-CD3/CD4/CD28 beads; in transgenic mouse T cells. activation, % (series mostly up to about 46 µM). 360,000 tested, 0.065% active; in the data active = activation above about 50%; inconclusive = mostly about 30% to 49%; note: 0% is about no effect
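EGFP and DsRed fluorescence is measured by plate cytometry in unstimulated transgenic mouse T cells exposed to compound for 60 minutes, then stimulated 18 hours at 37 degrees C with anti-CD3/anti-CD4 beads plus anti-CD28.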
RXFP1 agonist: RXFP1 (human) receptor agonism. Q9HBX9. HEK293T-RXFP1 cAMP TR-FRET, 30 min; response scale: percent of porcine relaxin response, buffer zero. Potency, µM (series often up to 57.5 µM), for inactives: top-dose activation, usual class: activators. 370,000 tested, 0.3% active. AID 2676; note: potency is the fitted concentration of half-maximal effect; % is set by controls: 0 for no effect and ±100 for the full control effect; nearly all actives have a fitted effect of over 60% in size
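HEK293T cells stably expressing RXFP1 were pretreated with the PDE4 inhibitor Ro 20174, exposed to compounds for 30 min at 37C, lysed, and cAMP was read by TR-FRET. Data normalized to buffer (basal) and 29 nM porcine relaxin (100%).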
miR-21 reporter: miR-21 reporter, rising signal. 340,000 tested, under 10 active. Potency, µM (highest dose often 38.3 µM), for the others: at the highest dose reporter change, positive = more light. HeLa miR-21 FLuc reporter, luciferase, 48 h. AID 2288; active = well fitted rising curve with a large enough effect; inconclusive = small, poorly fitted or top-dose-only effect; inactive = no such curve, though single readings can be large or run the other way;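 further: % of control where 0% means no effect; miR-21 action dims this reporter so a rising signal means less miR-21 action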
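Using DMEM plus 10% FBS, HeLa miR-21-FLuc cells are incubated with test compounds (final up to about 40uM) for 48 hours; firefly luciferase signal is then imaged following reagent-mediated lysis.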
PINK1 modulator: PINK1 expression modulation | PINK1 immunofluorescence, high-content cytometry, 24 h | Potency, µM (highest dose often 76.6 µM), inactives show at the top dose activation (PINK1 increase), most hits filed as activators | 410,000 tested, 0.2% active | AID 624263; active = well fitted activation curve with a large enough effect; inconclusive = small, poorly fitted or top-dose-only effect; cell line not stated here; note: potency is the fitted concentration of half-maximal effect; % of control where 0% means no effect; nearly all actives have a fitted effect of over 65% in size
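Cells are seeded, rested 12 hours, then given compound at five concentrations or DMSO for 24 hours. After fixation, blocking and antibody staining, PINK1 amount and mitochondrial localization are scored; CCCP serves as control.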
TCR act: T cell receptor activation; primary human leukocytes, anti-CD3, IL-2 HTRF, 48 h; Potency, µM (doses to about 9.22 µM), inactives show at the highest dose activation of IL-2 secretion, hits mostly activators; 330,000 tested, under 10 active; note: % of control where 0% means no effect
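Readout: HTRF IL-2, Eu-cryptate/d2 antibody pair, 320nm excitation, 665nm emission. Stimulus: a-CD3 beads, no co-stimulation. Cells: primary human leukocytes. Exposure: 48 hr with compound.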
Numbers without * were called inactive; u = inconclusive; x = no result; [ ] = remark or other dose. A selection: hits, their analogues and other compounds. The true share with any hit is near 0.78%. Unless noted, calls come from the whole dose curve; as a rule, active = well fitted curve in the direction sought with a large enough effect; inconclusive = small, poorly fitted or top-dose-only effect, or another doubt; inactive = no such curve, though single readings can be large; an effect the other way counts as inactive or inconclusive.

Compound	RXFP1 antagonist	IL2 activator	RXFP1 agonist	miR-21 reporter	PINK1 modulator	TCR act
Nc1c(C(=O)N/N=C/c2ccc(F)cc2)oc2nc(-c3ccccc3)cc(-c3ccco3)c12	-22.5	230.0*	24.7%	8.2%	u	0.5%
COCc1ccc(CN2CCOc3ccc(C4=Cc5ccccc5C4)cc3C2)o1	x	x	x	x	0.9%	x
COc1ccc(NS(=O)(=O)c2ccc(O)c(NC(=O)c3ccc(S(=O)(=O)N4CCCC4)cc3)c2)cc1	-60.1*	2.0	-1.5%	2.1%	-0.5%	-2.6%
Cc1ccccc1-c1ccc(CN2CCc3nnc(C(NS(C)(=O)=O)C(C)C)n3CC2)cc1 (stereo not given)	x	x	x	x	2.2%	x
Cc1ccc2cc3c(N)c(C(=O)Nc4c(C)[nH]c(=O)[nH]c4=O)sc3nc2c1	-14.4	20.7	0.5%	1.6%	31.6µM*	-4.4%[46.1 µM]
COc1ccc(CN2CCOc3ccc(CN4CCC(O)(c5cccnc5)CC4)cc3C2)c(C)c1C	x	x	x	x	-0.3%	x
Cc1cc(C)nc(SCC(=O)NC2CCCC2)n1	-9.2	1.7	1.8%	-5.4%	1.4%	0.2%
Cc1cc(C)nc(SCC(=O)NC2CCCCC2C)n1 (stereo not given)	-60.6*	0.8	0.2%	x	0.4%	-6.8%
COc1ccccc1-c1cc2c(c(OC)c1)OCCN(CCC(C)c1ccc(C)o1)C2 (stereo not given)	x	x	x	x	1.0%	x
CS(=O)(=O)c1ccccc1-c1nnc(NC(=O)c2cccc(N3C(=O)CCC3=O)c2)o1	-76.4*	0.1	-0.5%	x	2.1%	-4.9%

(continued)
Compound	RXFP1 antagonist	IL2 activator	RXFP1 agonist	miR-21 reporter	PINK1 modulator	TCR act
O=C(Nc1nnc(-c2ccncc2)o1)c1cccc(N2C(=O)CCC2=O)c1	-6.8	-3.5	0.7%	-1.3%	1.7%	-8.9%
C=CCn1c(=O)[nH]c2cc(C(=O)N3CC=C(c4ccccc4)CC3)ccc2c1=O	-72.3*	-0.2	1.2%	9.6%	1.1%	2.5%
O=C1CCCCN1CCC(=O)N1CCOc2ccc(C(O)C3CCCCC3)cc2C1 (stereo not given)	x	x	x	x	0.8%	x
CNC(=O)[C@@H]1C[C@H](Sc2nc3ccccc3[nH]2)CN1Cc1ccccc1C(F)(F)F	x	x	x	x	0.7%	x
O=C(NCC1(N2CCOCC2)CCCCC1)c1cnn(-c2nccc(-c3cccs3)n2)c1C1CC1	x	x	x	x	1.6%	x
COc1ccc(/C=C/C(=O)Nc2ccc(OC)cc2[N+](=O)[O-])cc1	-1.9	8.8	3.0%	-10.5%	44.7µM*	6.1%[46.1 µM]
COc1ccc(C(C)=O)cc1Cn1c(=O)cc(C)[nH]c1=O	1.4	-0.2	1.8%	-1.4%	-0.1%	7.6%
COc1ccc(C(C)=O)cc1Cn1cnc2c(cnn2C)c1=O	39.4	-2.1	12.6µM*	-7.4%	0.5%	5.9%
COCCN(C)C(=O)c1cnn(-c2ncc3c(n2)-c2ccccc2CC3)c1C	x	x	x	x	1.4%	x
O=C(c1ccc(Oc2ccccc2)cc1)C1CCCN(C(=O)c2cnccn2)C1 (stereo not given)	-12.9	-4.6	-1.1%	10.7%	2.3%	-1.9%

Entries of single compounds, quoted from the list.
COCCN(C)C(=O)c1cnn(-c2ncc3c(n2)-c2ccccc2CC3)c1C is listed with RXFP1 antagonist: x; IL2 activator: x; RXFP1 agonist: x; miR-21 reporter: x; PINK1 modulator: 1.4%; TCR act: x
COc1ccc(C(C)=O)cc1Cn1c(=O)cc(C)[nH]c1=O is listed with RXFP1 antagonist: 1.4; IL2 activator: -0.2; RXFP1 agonist: 1.8%; miR-21 reporter: -1.4%; PINK1 modulator: -0.1%; TCR act: 7.6%
COc1ccc(/C=C/C(=O)Nc2ccc(OC)cc2[N+](=O)[O-])cc1 is listed with RXFP1 antagonist: -1.9; IL2 activator: 8.8; RXFP1 agonist: 3.0%; miR-21 reporter: -10.5%; PINK1 modulator: 44.7µM*; TCR act: 6.1%[46.1 µM]

(more compounds)
Compound	RXFP1 antagonist	IL2 activator	RXFP1 agonist	miR-21 reporter	PINK1 modulator	TCR act
Cc1cc(C(=O)N2CCCC(C(=O)c3ccc(Oc4ccccc4)cc3)C2)n[nH]1 (stereo not given)	-85.0*	1.5	2.1%	22.7%	0.1%	-2.5%
O=C(O)c1cn(C2CC2)c2cc(Cl)c(F)cc2c1=O	-12.7	x	x	x	x	x
COc1ccc(C(=O)NCC(=O)n2nc(C)cc2C)cc1OC	-3.9	0.7	0.0%	-1.3%	0.5%	3.4%
Cc1cc(C)n(C(=O)CNC(=O)c2ccc(C(C)(C)C)cc2)n1	-115.8*	0.9	-3.3%	-19.9%	1.1%	1.1%
Cc1c(N=C2N=C(NC(=O)c3ccc(F)cc3)c3ccccc32)c(=O)n(-c2ccccc2)n1C	-10.2	3.2	-0.5%	-16.7%	39.8µM*	-5.7%
C(=N\Nc1nc(Nc2ccccc2)nc(Nc2ccccc2)n1)/c1ccncc1	-60.9*	-0.9	-1.0%	-0.6%	-1.8%	2.8%
COc1ccccc1-n1c(=O)c(C#N)c(-c2ccc([N+](=O)[O-])cc2)c2cc(C(=O)c3cc(F)ccc3O)cnc21	4.4	-0.1	3.0%	-9.7%	1.8%	x
Cn1c(=O)c(C#N)c(-c2ccc(F)cc2)c2cc(C(=O)c3cc(Cl)cc(Cl)c3O)cnc21	-38.6	0.4	3.3%	0.7%	25.1µM*	-2.6%
Cc1cnc(-n2ncc(C(=O)N(C)CC3CCCN(C)C3)c2C2CC2)nc1-c1cccs1 (stereo not given)	x	x	x	x	0.1%	x
CC(C)NC(=O)c1ccc(C=O)cc1	15.3	x	x	x	x	x

Continuation.
canonical_smiles	RXFP1 antagonist	IL2 activator	RXFP1 agonist	miR-21 reporter	PINK1 modulator	TCR act
CC1CCC(C(C)C)C(OC(=O)Cn2c(-c3ccccc3)[n+](C)c3ccccc32)C1 (stereo not given)	-71.4*	-0.7	0.1%	u	u	0.6%[46.1 µM]
CC1CCC(C(C)C)C(OC(=O)Cn2c(-c3ccc(F)cc3)[n+](C)c3ccccc32)C1 (stereo not given)	u	-1.1	-0.4%	u	u	-2.2%[46.1 µM]
CCOC(=O)c1cc2c(=O)n3ccccc3nc2n(Cc2ccco2)c1=NC(=O)c1ccccc1OCC	-5.4	1.8	28.2µM*	0.2%	6.5%	-25.1%
COC(=O)c1ccccc1-c1cc(C)cc2c1OC(CNC(=O)c1cc(C)n(C)n1)C2 (stereo not given)	x	x	x	x	-0.2%	x
COc1ccccc1-c1c(-c2ccc(OCC(=O)NN)cc2O)n[nH]c1C(F)(F)F	-10.3	0.1	0.7%	5.9%	1.5%	-3.2%[46.1 µM]
COc1ccc(-c2n[nH]c(C(F)(F)F)c2-c2cc3ccccc3o2)c(O)c1	-69.3*	-2.4	-1.0%	u	3.7%[38.3 µM]	1.8%
Cc1ccc(C(=O)NCCn2c(N)c(C#N)c3nc4ccccc4nc32)cc1	x	53.8*	26.0%	-6.5%	u	-0.7%
COc1cccc(-n2c(SC)nnc2C2CCN(CCC(C)c3ccc(C)o3)CC2)c1 (stereo not given)	x	x	x	x	0.5%	x
CCOC(=O)COc1ccc(/C=C/[N+](=O)[O-])c(OCC(=O)OCC)c1	-68.7*	-0.1	2.8%	u	-0.8%[38.3 µM]	-0.4%
CCOc1ccc(/C=C/[N+](=O)[O-])c2ccccc12	-69.5*	-4.7	1.6%	u	-4.7%[38.3 µM]	-2.9%
CC(NC(=O)c1cccnc1)c1nnc2n1CCN(Cc1ccc(F)cc1F)CC2 (stereo not given)	x	x	x	x	0.0%	x
Cc1cccc(N=C2NC(=O)/C(=C/c3cccn3C)S2)c1C	-26.3	7.6	-0.3%	10.9%	0.0%	-1.0%
Cc1cccc(N=C2NC(=O)/C(=C/C=C/c3ccco3)S2)c1C	-76.9*	-0.8	0.9%	-11.9%	2.3%	0.6%[46.1 µM]
O=C1NC(=Nc2ccccc2)S/C1=C\C=C\c1ccco1	-102.0*	3.6	1.3%	-6.9%	6.0%	-6.6%[46.1 µM]
